In BindingDB's records for patent WO2023285347 (Novo Nordisk, 2023):

Columns and labels:
[1] = target: T1, Corticotropin-releasing factor receptor 1 (Homo sapiens, UniProt P34998); assay: Scintillation Proximity Assay
T1 sequence (P34998 whole entry): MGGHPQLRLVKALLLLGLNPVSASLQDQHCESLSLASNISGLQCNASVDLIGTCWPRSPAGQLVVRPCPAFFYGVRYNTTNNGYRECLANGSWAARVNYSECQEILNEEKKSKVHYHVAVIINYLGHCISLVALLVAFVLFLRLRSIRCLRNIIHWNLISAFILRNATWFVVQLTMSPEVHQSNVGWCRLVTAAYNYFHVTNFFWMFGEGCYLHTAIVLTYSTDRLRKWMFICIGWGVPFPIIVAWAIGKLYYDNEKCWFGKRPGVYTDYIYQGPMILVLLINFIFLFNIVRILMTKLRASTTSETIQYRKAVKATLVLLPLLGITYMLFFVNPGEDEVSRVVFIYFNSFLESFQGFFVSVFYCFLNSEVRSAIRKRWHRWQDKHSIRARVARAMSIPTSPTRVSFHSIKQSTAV
Procedure: (§1) Receptor SPA binding assays were performed in white 96-well plates in a total volume of 200 mI per well. Freeze dried analogues were dissolved in 80% dimethyl sulfoxide, 20% H20 and serial dilutions (1:10) were performed in binding buffer (20 mM Tris-HCI pH 7.4, 5 mM MgAc2, 2 mM EGTA and 0.1% ovalbumin); the final assay concentrations ranging from 1 mM to 1 pM. Analogues and 7.5-50 pg of CRFi receptor membranes/well or 0.5 pg of CRF2 receptor membranes/well were added to assay plates. A mix of wheat germ agglutinin coated SPA beads (PerkinElmer) and [125l]-Sauvagine (PerkinElmer), both in binding buffer, was added to yield 0.4 mg beads/well and 50,000 cpm of radio ligand per well. Plates were sealed and incubated at 25 °C for 2 hours in a plate shaker set at 400 rpm and thereafter centrifuged at 1500 rp for 10 minutes. SPA plates were let to stand at room temperature for about 16 hours prior to reading on microplate scintillation counter. Displacement of radioligand was measured as reduction in luminescence, and IC50 values were calculated by nonlinear regression analysis of four parameter sigmoidal dose-response curves.

[2] = target: T2, Corticotropin-releasing factor receptor 2 (Homo sapiens, UniProt Q13324); assay: Scintillation Proximity Assay
T2 sequence (Q13324 whole entry): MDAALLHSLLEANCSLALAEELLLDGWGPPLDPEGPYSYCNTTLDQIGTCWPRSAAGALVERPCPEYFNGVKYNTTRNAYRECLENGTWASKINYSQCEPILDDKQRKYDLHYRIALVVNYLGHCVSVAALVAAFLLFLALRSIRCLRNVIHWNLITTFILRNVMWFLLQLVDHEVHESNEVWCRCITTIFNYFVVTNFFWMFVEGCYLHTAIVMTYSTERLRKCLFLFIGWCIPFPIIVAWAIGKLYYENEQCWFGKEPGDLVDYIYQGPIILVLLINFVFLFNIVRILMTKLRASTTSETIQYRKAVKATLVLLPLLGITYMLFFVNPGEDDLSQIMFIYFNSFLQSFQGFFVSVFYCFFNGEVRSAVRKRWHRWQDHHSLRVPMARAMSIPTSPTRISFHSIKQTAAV
Procedure: as §1

- pIC50 [1]: 6.35
- pIC50 [2]: 9.24
Compound: CC[C@H](C)[C@H](N)C(=O)N[C@H](C(=O)N[C@@H](CC(C)C)C(=O)N[C@@H](CO)C(=O)N[C@@H](CC(C)C)C(=O)N[C@@H](CC(=O)O)C(=O)N[C@H](C(=O)N1CCC[C@H]1C(=O)N[C@H](C(=O)NCC(=O)N[C@@H](CC(C)C)C(=O)N[C@@H](CC(C)C)C(=O)N[C@@H](CCC(N)=O)C(=O)N[C@H](C(=O)N[C@@H](CC(C)C)C(=O)N[C@@H](CC(C)C)C(=O)N[C@@H](CCC(=O)O)C(=O)N[C@@H](CCC(N)=O)C(=O)N[C@@H](C)C(=O)N[C@@H](CCCNC(=N)N)C(=O)N[C@@H](C)C(=O)N[C@@H](CCCNC(=N)N)C(=O)N[C@@H](C)C(=O)N[C@@H](C)C(=O)N[C@@H](CCCNC(=N)N)C(=O)N[C@@H](CCC(=O)O)C(=O)N[C@@H](CCC(N)=O)C(=O)N[C@@H](C)C(=O)N[C@H](C(=O)N[C@H](C(=O)N[C@@H](CC(N)=O)C(=O)N[C@@H](C)C(=O)N[C@@H](CCCNC(=N)N)C(=O)N[C@H](C(=O)N[C@@H](CC(C)C)C(=O)N[C@@H](C)C(=O)N[C@@H](CCCNC(=N)N)C(=O)N[C@H](C(N)=O)C(C)C)[C@@H](C)CC)[C@@H](C)O)[C@@H](C)O)[C@@H](C)CC)[C@@H](C)CC)C(C)C)C(C)C [WO2023285347, Compound 2]

pIC50: −log10 of the molar value.
